The results in this text go back to ChEMBL document CHEMBL1130965, “Inhibitors of farnesyl protein transferase. Synthesis and biological activity of amide and cyanoguanidine derivatives containing a 5,11-dihydro[1]benzthiepin, benzoxepin, and benzazepin [4,3-b]pyridine ring system” (Bioorg Med Chem Lett, 1998).

The target in the experiment is Protein farnesyltransferase (Homo sapiens, UniProt P49354+P49356). Kind of experiment: In vitro FPT potency by measuring the ability to inhibit the transfer of [3H]farnesyl from farnesyl pyrophosphate to H-Ras-CLVS. It counts as protein-complex assay.

As usually defined, the IC50 is the midpoint of a concentration-inhibition curve. Read a high IC50 as a need for much substance. In the case of `O=C(Cc1ccncc1)N1CCN(C2c3ccc(Cl)cc3CCc3cccnc32)CC1` (stereo unspecified), the 50% inhibitory concentration (IC50) amounted to 0.036 µM. This counts as double-digit nanomolar.
